Patent US7186703B2, “Derivatives of branched-chain lipophilic molecules and uses thereof” (D-Pharm Ltd., priority 2000, dated 2007)

Assay type: in vivo
Conditions: rats; sodium salt
Procedure: DP-BFA molecules were evaluated for safety and toxicity. Increasing doses of the tested compounds were administered intra-arterially (i.a.) into rats following the protocol described above in Example 17. Animal viability was monitored for 24 hours to evaluate lethal concentrations (LC). LC is defined as the minimal concentration that caused death.
Safety index is defined as the ratio between the lethal dose (LC) and the minimal effective concentration (MEC), wherein MEC corresponds to a calculated concentration of the tested compound that elicits accumulation of three times the amount of Evans blue accumulated in control animals treated with vehicle only, i.e. total accumulation of 3 μg EB. The higher the LC/MEC ratio is, the higher the safety index.

Substance	Safety LC/MEC
2-(4′-Hexadecanoyloxy)ethoxyethyl phosphate [3,12-DEG-PO4]	10
4-Hexadecanoyloxyethyl phosphate [3,12-MEG-PO4]	7.5
